Patent publication US7792665B2, “Method for designing a compound based on the three dimensional structure of phosphoinositide dependent protein kinase 1 (PDK1)” (Medical Research Council, priority 2002, dated 2010)

Target: PHOS.KINASE (Oryctolagus cuniculus, UniProt P00518)
Assay: Kinase panel assay, phosphorylase kinase
Assay type: biochemical
Conditions: 1 μM inhibitor, 0.1 mM ATP, average of triplicate

CN[C@@H]1C[C@H]2O[C@@](C)([C@@H]1OC)n1c3ccccc3c3c4c(c5c6ccccc6n2c5c31)C(=O)NC4 [STO, staurosporine]
percentage of kinase activity compared to control incubations, PHOS.KINASE: 2 ± 3%
